Test results published in patent publication US20260355225A1 (priority 2022, published 2026).

Tests used:
[1] = system: SARS-CoV-2; assay: Antiviral assay, inhibition of virus-induced cytopathic effect (CPE) of SARS-CoV-2 by MTT assay (Example 1)
[2] = system: HIV-1 NL4-3; assay: Antiviral assay against HIV-1 NL4-3, percentage of infected cells by immunofluorescence (Example 2)

O=C[C@H](O)[C@@H](O)[C@H](O)CO [D-xylose]
antiviral properties against SARS-CoV-2 [1]: confirmed
antiviral properties against HIV-NL4-3 [2]: confirmed
